Measurements from ChEMBL document CHEMBL1136486, “Novel 3,4-dihydroquinolin-2(1H)-one inhibitors of human glycogen phosphorylase a” (Bioorg Med Chem Lett, 2003).

Tests used:
[1] = target: T1, Glycogen phosphorylase, muscle form (Homo sapiens, UniProt P11217); test: Inhibitory concentration against recombinant human muscle glycogen phosphorylase a (HMGPa); type: single protein
T1 sequence (P11217 whole entry): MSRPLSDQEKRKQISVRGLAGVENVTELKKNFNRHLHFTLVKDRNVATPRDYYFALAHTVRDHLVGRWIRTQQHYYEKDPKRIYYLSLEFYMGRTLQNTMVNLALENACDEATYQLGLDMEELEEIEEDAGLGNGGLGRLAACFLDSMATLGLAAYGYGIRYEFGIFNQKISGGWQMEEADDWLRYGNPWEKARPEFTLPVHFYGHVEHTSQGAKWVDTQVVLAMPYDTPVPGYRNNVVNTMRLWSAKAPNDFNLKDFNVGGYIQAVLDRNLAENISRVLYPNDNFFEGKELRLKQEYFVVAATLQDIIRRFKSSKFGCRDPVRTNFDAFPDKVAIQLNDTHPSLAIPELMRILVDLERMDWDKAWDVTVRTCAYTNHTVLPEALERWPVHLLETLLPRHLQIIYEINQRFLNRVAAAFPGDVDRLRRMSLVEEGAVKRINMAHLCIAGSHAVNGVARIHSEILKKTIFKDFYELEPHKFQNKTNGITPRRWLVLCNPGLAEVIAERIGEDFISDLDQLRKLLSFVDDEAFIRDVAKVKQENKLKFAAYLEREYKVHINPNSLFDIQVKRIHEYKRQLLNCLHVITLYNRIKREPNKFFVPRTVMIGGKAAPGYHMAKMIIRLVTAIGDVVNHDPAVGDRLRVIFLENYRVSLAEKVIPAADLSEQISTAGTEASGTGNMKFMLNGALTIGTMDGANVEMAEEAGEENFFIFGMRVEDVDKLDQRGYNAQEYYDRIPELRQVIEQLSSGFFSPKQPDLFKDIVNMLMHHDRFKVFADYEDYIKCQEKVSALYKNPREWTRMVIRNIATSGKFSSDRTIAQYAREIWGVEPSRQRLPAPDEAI

[2] = target: T2, Glycogen phosphorylase, liver form (Homo sapiens, UniProt P06737); test: Inhibitory concentration against recombinant human liver glycogen phosphorylase a (HLGPa)
T2 sequence (P06737 whole entry): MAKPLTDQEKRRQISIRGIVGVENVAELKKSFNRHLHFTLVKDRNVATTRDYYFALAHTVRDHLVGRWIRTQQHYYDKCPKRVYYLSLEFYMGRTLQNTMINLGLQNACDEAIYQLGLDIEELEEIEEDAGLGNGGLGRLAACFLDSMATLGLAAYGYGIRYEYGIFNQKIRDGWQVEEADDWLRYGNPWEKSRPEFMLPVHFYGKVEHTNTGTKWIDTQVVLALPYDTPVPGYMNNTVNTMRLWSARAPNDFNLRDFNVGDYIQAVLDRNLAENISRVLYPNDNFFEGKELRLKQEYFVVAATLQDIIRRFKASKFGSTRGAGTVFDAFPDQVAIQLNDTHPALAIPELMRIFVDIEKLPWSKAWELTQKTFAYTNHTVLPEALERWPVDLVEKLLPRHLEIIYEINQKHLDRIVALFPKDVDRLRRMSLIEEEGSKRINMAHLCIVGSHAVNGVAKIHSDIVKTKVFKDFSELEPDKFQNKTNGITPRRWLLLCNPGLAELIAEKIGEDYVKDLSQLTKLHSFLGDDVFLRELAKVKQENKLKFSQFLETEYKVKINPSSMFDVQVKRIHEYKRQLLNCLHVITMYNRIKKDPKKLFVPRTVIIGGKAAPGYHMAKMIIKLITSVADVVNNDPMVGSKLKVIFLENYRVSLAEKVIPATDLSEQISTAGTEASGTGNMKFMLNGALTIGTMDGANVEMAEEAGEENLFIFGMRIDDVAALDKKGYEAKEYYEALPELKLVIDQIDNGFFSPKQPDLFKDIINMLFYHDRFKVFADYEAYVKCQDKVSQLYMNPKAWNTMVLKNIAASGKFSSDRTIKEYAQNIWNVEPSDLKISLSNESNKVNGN

| Compound | IC50 [1] | IC50 [2] |
| --- | --- | --- |
| O=C(N[C@@H]1CCc2ccccc2NC1=O)c1cc2cc(Cl)ccc2[nH]1 | 83 nM | 99 nM |
| CN1C(=O)C(NC(=O)c2cc3cccc(Cl)c3[nH]2)Cc2ccccc21 (stereo unspecified) | 88 nM |  |
| O=C(NC1CCc2ccccc2NC1=O)c1cc2cc(Cl)ccc2[nH]1 (stereo unspecified) | 55 nM | 105 nM |
| O=C(N[C@H]1CCc2ccccc2NC1=O)c1cc2cc(Cl)ccc2[nH]1 | 240 nM |  |
